Literature values, collected in patent US11094527B2, “Wet clean solutions to prevent pattern collapse” (INTERNATIONAL BUSINESS MACHINES CORPORATION, priority 2018, dated 2021).

Surface tension (at about 20° C.): 24.6 mN/m
Substance: n-butyl alcohol
